The list shows a part of the results, in another mix than the full data. Active and inactive are the calls of the source.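 How the source made its calls: active means versus positive control, 20 µM dose yields 30% or more activation; inactive means the rest.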

A short description of the test: activators of adaptive XBP1 UPR arm, primary screen, cell-based, CHO-XBP1 luciferase reporter, luminescence, uHTS (AID 463104).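 Further: 100% = tunicamycin at 10 µg/mL and 0% = DMSO only wells.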 The settings on record: IRE1-XBP1 UPR activation, at 20 µM, active compounds read high, percent of tunicamycin response, DMSO as zero. In outline: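 Signal: luciferase luminescence; Assay system: CHO-XBP1 luciferase reporter cells; Amount: one thousand reporter cells per well; Dosing: 20 µM single concentration, DMSO 1%; Benchmarks: high control tunicamycin 10 µg/mL final, low control DMSO vehicle only; Schedule: 6 h compound exposure at 37 °C, 5% CO2; Evaluation: percent activation relative to tunicamycin reference.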
A general note: In a reporter assay the amount or activity of a reporter protein is the signal.
`CCC(=O)N(c1ccccc1)C1(COC)CCN(CCn2nnn(CC)c2=O)CC1`: the activation is inactive: -0.64%.
On to `CCC(=O)N(c1ccccc1)C1(COC)CCN(CCc2cccs2)CC1`, for which the activation was inactive: 0.06%.

The values above are taken from PubChem BioAssay AID463104 (Sanford-Burnham Center for Chemical Genomics, 2010).
